Molecular target: serum albumin (BSA) (Bos taurus, UniProt P02769)
Assay: Fluorescence test for interaction with albumin
Format: binding, bovine
Conditions: compound/BSA weight ratio 1; BSA 0.5 mg/ml, PBS pH 7.4; excitation 280 nm, emission 350 nm
Experimental: The test carried out is a “fluorescence” test with albumin, which makes it posible, by measuring the variations in fluorescence of albumin, to verify whether an interaction exists between the compound tested and albumin.
The compound/albumin solutions are prepared from stock solutions of compounds and of serum albumin (BSA) by mixing the appropriate volumes in order to obtain a fixed BSA concentration at 0.5 mg/ml and compound/BSA weight ratios of 1, 5 and 10. These solutions are prepared in a PBS buffer at pH 7.4.
200 μl of the various compound/BSA solutions are introduced into a 96-well plate. The fluorescence measurements are carried out at room temperature (20° C.) with an EnVision® fluorescence spectrometer (PerkinElmer). […] This corresponds to the fluorescence of the tryptophan residues of albumin (Ruiz-Peña M. et al., M, A. Physico-chemical studies of molecular interactions between non-ionic surfactants and bovine serum albumin, Colloids Surf. B Biointerfaces 2010, 75, 282-289). […] If this ratio is less than 1, this means that the compound induces partial quenching of the albumin fluorescence linked to a change in environment of the tryptophan residues. […] It was verified, as a control, that, for all the compounds tested, the fluorescence of the compound alone is negligible considering the fluorescence of albumin (fluorescence (compound) <2% fluorescence (albumin)).

Protein sequences, listed by entry. Tags and fused reporters are not part of them. Residues count along the entry.
UniProt P02769, 25-607: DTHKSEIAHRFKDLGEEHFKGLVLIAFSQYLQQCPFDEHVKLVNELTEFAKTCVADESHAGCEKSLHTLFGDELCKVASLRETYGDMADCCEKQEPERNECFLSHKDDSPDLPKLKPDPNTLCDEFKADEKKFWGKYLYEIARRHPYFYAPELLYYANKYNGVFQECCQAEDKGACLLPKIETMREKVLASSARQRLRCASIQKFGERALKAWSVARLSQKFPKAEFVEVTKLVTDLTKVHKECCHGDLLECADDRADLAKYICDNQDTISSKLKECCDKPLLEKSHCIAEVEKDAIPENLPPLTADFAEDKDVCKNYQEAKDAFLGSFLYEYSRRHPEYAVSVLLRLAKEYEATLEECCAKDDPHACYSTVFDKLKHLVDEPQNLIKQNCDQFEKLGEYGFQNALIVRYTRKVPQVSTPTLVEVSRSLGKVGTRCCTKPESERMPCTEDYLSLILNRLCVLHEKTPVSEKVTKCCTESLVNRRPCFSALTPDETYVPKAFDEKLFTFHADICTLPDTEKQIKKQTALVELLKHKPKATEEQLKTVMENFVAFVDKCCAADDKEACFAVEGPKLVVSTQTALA

For “Sodium maltotriosemethylcarboxylate Functionalized with dilauryl aspartate [Compound 19]”, the “Result F/F0 <0.5” value was “YES”.

— patent publication US20170143835A1, “SUBSTITUTED ANIONIC COMPOUNDS CONSISTING OF A BACKBONE MADE UP OF A DISCRETE NUMBER OF SACCHARIDE UNITS” (ADOCIA, priority 2012, published 2017)
